Legend:
[1] = rabbit plasma pharmacokinetic study with 125I-labeled insulin and conjugates, HPLC speciation; assay type: in vivo, white New Zealand rabbits
[2] = unconjugated polypeptide drug, background statement; cited from earlier work
[3] = rabbits, subcutaneous injection, soluble monocomponent insulin; T. Kasama et al. 1980; cited from earlier work
[4] = rabbit, n=1, 100 μg injected, two compartment/bolus injection fit

Insulin
persistence in plasma (in words) ([1]; rabbit plasma, HPLC speciation of 125I): barely detectable after 1 hr
A (fit parameter) [1, 4]: 220 µg/L
B (fit parameter) [1, 4]: 30 µg/L
Cmax [1, 4]: 250 ng/mL
Vss [1, 4]: 0.62 L/kg
α Half-Life [1, 4]: 4.2 min
β Half-Life [1, 4]: 100 min
Vss ([1]; rabbit, n=1, 100 μg injected, two compartment/bolus injection fit, listed as insulin): 0.6 L/kg
AUC Fold Increase ([1]; rabbit, relative to insulin): 1
t1/2 [2]: 5 min
biological half-life [3]: 5.50±0.49 minutes

Reference: patent US7186797B2, “Polypeptide conjugates with extended circulating half-lives” (Epix Pharmaceuticals, Inc., priority 2001, dated 2007)
